Test system: COLO 205
Assay: Antitumor activity against human COLO205 cells assessed as cell growth inhibition at 10 uM incubated for 48 hrs by sulforhodamine B assay
Format: functional
Conditions: read-out: GI
In short: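 NCI Drug Evaluation Branch protocol: primary single-dose screen at 10 μM across a 57-line human cancer panel. Drug exposure is 48 h. Cell growth and viability are read by sulforhodamine B assay. Data are given as a mean graph of percent growth of treated cells and reported as percentage growth inhibition (GI%).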

N#Cc1c(-c2ccc(Br)cc2)nc2c(/N=N/c3ccc(S(N)(=O)=O)cc3)c(N)nn2c1N
inhibition of growth at 10 µM: 74%
